# From patent US9284528B2, “Use of stem cell conditioned medium to inhibit oxidation for anti-aging skin” (GROWGENE BIOTECH INC., priority 2014, dated 2016)
# Assay: Hydrogen peroxide (H2O2) scavenging assay
# Conditions: 200 mg/L L-ascorbic acid; 10-minute reaction; A230; mean±SEM, triplicate
smiles,measurement,value
O=C1O[C@H]([C@@H](O)CO)C(O)=C1O [L-ascorbic acid],H2O2 scavenged (scavenging effects),88.18%±1.06%
